Data reported in US20070184519A1, “Peptides, polypeptides, and proteins of reduced immunogenicity and methods for their production” (priority 2003, published 2007).
Entries after “also recorded” stand apart in the source; their conditions may differ.

Columns and labels:
MHC class II molecules = experiment: Panel of MHC class II binding assays: number of molecules bound or with reduced binding (degeneracy, cross-reactivity); design: species or system human; conditions: for xm (1000 nM): number of MHC class II molecules bound at a threshold of 1000 nM or less, 17 molecules in the table
CD4+ T cells = experiment: Primary in vitro immunogenicity of analog peptide combinations and modified EPO proteins (DC-stimulated CD4+ T cells, IFN-γ ELISPOT); type: cell-based, human; conditions: DC pulsed with culture supernates; 5 donors

Row | Molecule | xm (1000 nM) (MHC class II molecules) | degenerate binding regions identified in the protein (MHC class II molecules; overlapping 15mer peptides) | mean response, proteins (CD4+ T cells) | positive cultures / cultures tested, proteins (CD4+ T cells)
1 | CC[C@H](C)[C@H](NC(=O)[C@H](CC(N)=O)NC(=O)[C@H](CCC(=O)O)NC(=O)[C@H](C)NC(=O)[C@@H](N)CCC(=O)O)C(=O)N[C@H](C(=O)N[C@H](C(=O)NCC(=O)N[C@@H](CS)C(=O)N[C@@H](C)C(=O)N[C@@H](CCC(=O)O)C(=O)N[C@@H](Cc1c[nH]cn1)C(=O)N[C@@H](CS)C(=O)N[C@@H](CO)C(=O)N[C@@H](CC(C)C)C(=O)O)[C@@H](C)O)[C@@H](C)O | 0 |  |  | 
2 | CC[C@H](C)[C@H](NC(=O)[C@H](CC(N)=O)NC(=O)[C@H](CCC(=O)O)NC(=O)[C@H](CC(N)=O)NC(=O)[C@H](CC(C)C)NC(=O)[C@H](CO)NC(=O)[C@H](CS)NC(=O)[C@H](Cc1c[nH]cn1)NC(=O)[C@H](CCC(=O)O)NC(=O)[C@H](C)NC(=O)[C@H](CS)NC(=O)CNC(=O)[C@@H](NC(=O)[C@@H](N)[C@@H](C)O)[C@@H](C)O)C(=O)N[C@H](C(=O)O)[C@@H](C)O | 0 |  |  | 
3 | Calcitonin: 32 amino acid polypeptide derived from salmon origin |  | did not contain any degenerate binding regions; also recorded: did not contain any clear degenerate binding peptides |  | 
4 | G3: EPO variant (T107D, S146D) |  |  | 6 SFC/5×10^4 effector cells | 9/40
5 | G4: EPO variant (L102G, T107D, S146D) |  |  | 9 SFC/5×10^4 effector cells | 8/40
